{"sequences": {"note": "Amino acid sequences for entries named in this document (tags omitted). Residues count along the entry.", "UniProt P02769, 25-607": "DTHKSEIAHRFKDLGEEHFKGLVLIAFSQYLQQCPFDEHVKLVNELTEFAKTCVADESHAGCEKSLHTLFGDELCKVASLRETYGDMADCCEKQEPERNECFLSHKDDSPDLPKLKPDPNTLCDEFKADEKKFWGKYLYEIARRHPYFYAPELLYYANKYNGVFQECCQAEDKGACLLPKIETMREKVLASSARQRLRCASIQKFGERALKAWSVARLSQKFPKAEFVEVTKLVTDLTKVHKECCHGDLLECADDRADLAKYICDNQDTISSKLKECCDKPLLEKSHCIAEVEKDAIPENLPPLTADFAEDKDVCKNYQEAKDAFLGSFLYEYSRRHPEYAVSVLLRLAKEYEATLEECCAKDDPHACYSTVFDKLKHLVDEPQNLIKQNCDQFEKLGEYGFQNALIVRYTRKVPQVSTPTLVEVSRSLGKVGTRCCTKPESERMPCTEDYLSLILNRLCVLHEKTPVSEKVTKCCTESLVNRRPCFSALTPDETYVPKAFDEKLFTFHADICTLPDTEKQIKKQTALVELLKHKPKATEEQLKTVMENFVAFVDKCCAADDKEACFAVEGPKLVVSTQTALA"}, "source": "patent US20170001956A1", "about": "“HYDROCARBYL CARBOXYBETAINE AND METHOD FOR PREVENTING HOFMANN ELIMINATION IN ALKALINE ENVIRONMENT” (NATIONAL CHUNG CHENG UNIVERSITY, priority 2015, published 2017)", "key": {"[1]": {"target": "T1, bovine serum albumin (BSA) (Bos taurus, UniProt P02769)", "test": "Test 2: protein adsorption test at different pH values, before and after 1M NaOH, optical fiber bio-sensing system"}, "[2]": {"target": "T1, bovine serum albumin (BSA)", "test": "Test 1: nonspecific adsorption resistance before and after 1M NaOH treatment, optical fiber bio-sensing system", "settings": "self-assembled nano thin film on nano-gold optical fiber; 49 mg/ml BSA; PBS rinse; FIG. 3"}}}
{"smiles": "CC(C[N+](C)(C)CCSSCC[N+](C)(C)CC(C)C(=O)O)C(=O)O", "note": "(stereo not drawn) [α-mCB, carboxy-alpha-methyl-betaine disulfide]", "values": [{"measurement": "nonspecific adsorption resistance in different pH values", "setting": "[1]; 49 mg/ml BSA, buffer of different pH, FIG. 4", "value": "excellent nonspecific adsorption resistance"}, {"measurement": "Hofmann elimination", "setting": "[1]; self-assembled nano thin film, treatment with 1M NaOH", "value": "does not undergo Hofmann elimination"}, {"measurement": "nonspecific adsorption resistance before and after the treatment of 1M NaOH solution", "setting": "[2]", "value": "no evident difference"}]}
